{"sequences": {"note": "Sequences of proteins named here, by UniProt entry; tags and fusion partners are left off.", "UniProt P49798, whole entry": "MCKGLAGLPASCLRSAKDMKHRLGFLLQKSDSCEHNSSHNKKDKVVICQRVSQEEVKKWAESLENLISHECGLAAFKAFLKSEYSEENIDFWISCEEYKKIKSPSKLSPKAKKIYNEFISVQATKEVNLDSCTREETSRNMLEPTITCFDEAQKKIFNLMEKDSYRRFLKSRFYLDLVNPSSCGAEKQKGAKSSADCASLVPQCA"}, "source": "PubChem BioAssay AID504845", "about": "(National Center for Advancing Translational Sciences (NCATS), 2011)", "note": "The list shows a part of the results, in another mix than the full data. Records with an inconclusive call do not appear. The source made the active and inactive calls. Calls follow the shape of the dose curve; as a rule, active = well fitted inhibition curve with a large enough effect; inconclusive = small, poorly fitted or top-dose-only effect; inactive = no such curve, though single readings can be large or run the other way. % is scaled to controls: 0 for no effect and ±100 for the full control effect; potency is read from the fitted curve at half-maximal effect."}
{"molecular_target": "Regulator of G-protein signaling 4 (Homo sapiens) (UniProt P49798)", "assay": "Inhibitors of Regulator of G Protein Signaling (RGS) 4: qHTS; also: nearly all actives have a fitted effect of over 75% in size", "conditions": "Transcreener GDP fluorescence polarization, RGS4-accelerated GTP hydrolysis; series mostly up to 114 µM; activity change, negative = inhibition: at the top concentration", "excerpt": "G-protein-coupled receptors (GPCRs) are well-established targets for drug discovery and development. Members of the \"regulator of G-protein signaling\" (RGS)-protein superfamily have recently emerged as critical modulators of specific GPCR signaling pathways. […] Combining specific RGS domain inhibitors with existing GPCR agonists should potentiate cellular responses and could also increase the specificity of action of existing therapeutics. Small molecule modulators of RGS domain activity should also have clinical utility in inhibiting or potentiating the actions of endogenous GPCR agonists. In particular, the diversity of RGS proteins with highly localized and dynamically regulated distributions in the human brain makes this family of proteins attractive targets for pharmacotherapy of central nervous system (CNS) disorders such as Parkinson's disease, schizophrenia, and anxiety.\nThis assay was used to screen the NIH Molecular Libraries Small Molecule Repository (MLSMR) in order to identify a small molecule that inhibits RGS4.\nNIH Chemical Genomics Center [NCGC]\nNIH Molecular Libraries Probe Centers Network [MLPCN]\nAssay Submitter (PI): David Siderovski, University of North Carolina Chapel Hill (School of Medicine)\nTwo microliters of 500nM (2x working concentration) is dispensed into black medium-binding solid-bottom Kalypsys plates. Then with the Kalypsys pintool 23nl of control and compounds are transferred; the control compound is […] CCG-4986 (working concentration). After a 10 minute incubation at room temperature 2ul of antibody is added with the Kalypsys dispenser; (-)RGS4/Transcreener GDP solution in columns 3 and 4 which consisted of 10nM (2x working concentration) Alexa633, 20uM GTP, and 20 ug/ml GDP antibody and (+)RGS4/Transcreener GDP solution in columns 1,2, and 5 to 48 which consists of 900nM RGS4 (2x working concentration), 10nM Alexa633, 20 ug/ml GDP antibody. The plate is centrifuged at 1000 RPM for 15 seconds to remove any possible bubbles and then incubated for 5 minutes at ambient room temperature. An initial fluorescent polarization read (620 nm/688 nm) is performed on the Envision before the plate is incubated for 90 minutes at 30 deg C at a relative humidity of 80%. The plate is once more centrifuged at 1000 RPM for 15 seconds and another Envision fluorescent polarization (620 nm/688 nm) read is carried out."}
{"smiles": "O=[N+]([O-])c1cc([N+](=O)[O-])c(-c2cnn(-c3ccccc3)c2)c([N+](=O)[O-])c1", "activity change, negative = inhibition": "inactive: -11%"}
{"smiles": "O=[N+]([O-])c1cc([N+](=O)[O-])c(-n2nnc3ccccc32)c([N+](=O)[O-])c1", "activity change, negative = inhibition": "inactive: 22.6%"}
{"smiles": "CN1CCCCC1COC(=O)C1(O)c2ccccc2CCc2ccccc21", "note": "(configuration not stated)", "activity change, negative = inhibition": "inactive: 0.626%"}
{"smiles": "COc1ccccc1OP(C)(=O)Nc1c(C)cccc1C", "note": "(configuration not stated)", "activity change, negative = inhibition": "inactive: -16% [at 56.9 µM]"}
{"smiles": "CP(=O)(Nc1ccc(SC(F)(F)F)cc1)Oc1ccccc1", "note": "(configuration not stated)", "activity change, negative = inhibition": "inactive: -7.98%"}
{"smiles": "CCCOc1ccc(NP(C)(=O)Oc2ccc(Cl)cc2)cc1", "note": "(configuration not stated)", "activity change, negative = inhibition": "inactive: -7.84%"}
{"smiles": "O=[N+]([O-])c1cc([N+](=O)[O-])c(Nc2nnnn2CCO)c([N+](=O)[O-])c1", "activity change, negative = inhibition": "inactive: 7.58%"}
{"smiles": "CC1=C2N=C(C=C3N=C(C(C)=C4[N-][C@@](C)([C@@H]5N=C1[C@](C)(CCC(=O)NC[C@@H](C)OP(=O)([O-])O[C@H]1[C@@H](O)[C@@H](n6cnc7cc(C)c(C)cc76)O[C@@H]1CO)[C@H]5CC(N)=O)[C@@](C)(CC(N)=O)[C@@H]4CCC(N)=O)[C@@](C)(CC(N)=O)[C@@H]3CCC(N)=O)C(C)(C)[C@@H]2CCC(N)=O.[C-]#N.[Co+3]", "activity change, negative = inhibition": "inactive: 0%"}
{"smiles": "CC1=NCCc2c1[nH]c1ccccc21.O=[N+]([O-])c1cc([N+](=O)[O-])c(O)c([N+](=O)[O-])c1", "activity change, negative = inhibition": "inactive: 7.26%"}
{"smiles": "Cc1cc(C)cc(OP(C)(=O)Nc2ccccn2)c1", "note": "(configuration not stated)", "activity change, negative = inhibition": "inactive: -16.9%"}
{"smiles": "Cc1ccc(C)c(NP(C)(=O)Oc2ccccc2)c1", "note": "(configuration not stated)", "activity change, negative = inhibition": "inactive: 31.7%"}
{"smiles": "COc1ccccc1OP(C)(=O)Nc1cccc(Br)c1", "note": "(configuration not stated)", "activity change, negative = inhibition": "inactive: -7.87% [at 11.4 µM]"}
{"smiles": "Cc1cc(C)cc(OP(C)(=O)Nc2ccc(C)cc2C)c1", "note": "(configuration not stated)", "activity change, negative = inhibition": "inactive: -18.5%"}
{"smiles": "CCOC(=O)c1ccc(NP(C)(=O)Oc2cc(C)cc(C)c2)cc1", "note": "(configuration not stated)", "activity change, negative = inhibition": "inactive: -6.34%"}
{"smiles": "CCN(CC)CCCOC(=O)C(O)(c1ccccc1)c1ccccc1", "activity change, negative = inhibition": "inactive: 29%"}
{"smiles": "CCOC(=O)c1ccc(NP(C)(=O)Oc2ccccc2)cc1", "note": "(configuration not stated)", "activity change, negative = inhibition": "inactive: -8.48%"}
{"smiles": "Cc1ccc(NP(C)(=O)Oc2ccccc2)c(C)c1", "note": "(configuration not stated)", "activity change, negative = inhibition": "inactive: 11.5%"}
{"smiles": "COc1ccccc1OP(C)(=O)Nc1ccc(C)cc1", "note": "(configuration not stated)", "activity change, negative = inhibition": "inactive: -5.03%"}
{"smiles": "COc1ccc(OP(C)(=O)Nc2cccc(F)c2)cc1", "note": "(configuration not stated)", "activity change, negative = inhibition": "inactive: -4.83% [at 11.4 µM]"}
{"smiles": "COc1ccccc1OP(C)(=O)Nc1cc(Cl)ccc1C", "note": "(configuration not stated)", "activity change, negative = inhibition": "inactive: 3.56%"}
{"smiles": "Cc1cc(C)cc(OP(C)(N)=O)c1", "note": "(configuration not stated)", "activity change, negative = inhibition": "inactive: -4.05%"}
{"smiles": "O=[N+]([O-])c1cc([N+](=O)[O-])c(Nc2cccnc2)c([N+](=O)[O-])c1", "activity change, negative = inhibition": "inactive: -21.2%"}
{"smiles": "Cc1cccc(C)c1OP(C)(N)=O", "note": "(configuration not stated)", "activity change, negative = inhibition": "inactive: -12.3%"}
{"smiles": "CC(C)(C)c1ccc(OP(C)(=O)Nc2ccc(SC(F)(F)F)cc2)cc1", "note": "(configuration not stated)", "activity change, negative = inhibition": "inactive: -29.7%"}
{"smiles": "O=[N+]([O-])c1ccc2c(c1)C=Nc1ccccc1O2", "activity change, negative = inhibition": "inactive: 2.92%"}
{"smiles": "COc1ccccc1OP(C)(=O)Nc1ccccc1", "note": "(configuration not stated)", "activity change, negative = inhibition": "inactive: 1.63%"}
{"smiles": "CP(=O)(Nc1ccccc1Br)Oc1ccccc1", "note": "(configuration not stated)", "activity change, negative = inhibition": "inactive: -8.73%"}
{"smiles": "CCOP(C)(=S)SCC(=O)NC(C)C(=O)O", "note": "(configuration not stated)", "activity change, negative = inhibition": "inactive: 11.9%"}
{"smiles": "O=[N+]([O-])c1cc([N+](=O)[O-])c(O)c([N+](=O)[O-])c1.c1ccc(Oc2ccncc2)cc1", "activity change, negative = inhibition": "inactive: 6.29%"}
{"smiles": "CCOC(=O)c1ccc(NP(C)(=O)Oc2ccc(OC)cc2)cc1", "note": "(configuration not stated)", "activity change, negative = inhibition": "inactive: -4%"}
{"smiles": "CP(=O)(Nc1ccccn1)Oc1ccc(Cl)cc1", "note": "(configuration not stated)", "activity change, negative = inhibition": "inactive: -4.96%"}
{"smiles": "CP(=O)(Oc1ccccc1)OC(c1ccccc1)C(F)(F)F", "note": "(configuration not stated)", "activity change, negative = inhibition": "inactive: 9.3%"}
{"smiles": "CP(=O)(Nc1ccc(SC(F)(F)F)cc1)Oc1ccc(Cl)cc1", "note": "(configuration not stated)", "activity change, negative = inhibition": "inactive: 32.1%"}
{"smiles": "Cc1cccc(C)c1OP(C)(=O)Nc1ccc(SC(F)(F)F)cc1", "note": "(configuration not stated)", "activity change, negative = inhibition": "inactive: -21.5%"}
{"smiles": "Cc1cc(C)cc(OP(C)(=O)Nc2ccc(SC(F)(F)F)cc2)c1", "note": "(configuration not stated)", "activity change, negative = inhibition": "inactive: -5.91%"}
{"smiles": "CCc1ccc(OP(C)(=O)N2CCN(c3ccc([N+](=O)[O-])cc3)CC2)cc1", "note": "(configuration not stated)", "activity change, negative = inhibition": "inactive: 12.1%"}
{"smiles": "CP(=O)(NC(=O)Nc1ccccc1)Oc1ccccc1", "note": "(configuration not stated)", "activity change, negative = inhibition": "inactive: 10.7%"}
{"smiles": "CP(=O)(Nc1ccc(Cl)cc1)Oc1ccc(F)cc1", "note": "(configuration not stated)", "activity change, negative = inhibition": "inactive: -18.5%"}
{"smiles": "CC(C)(C)c1ccc(OP(C)(=O)O)cc1", "activity change, negative = inhibition": "inactive: -15.2%"}
{"smiles": "COc1ccccc1OP(C)(=O)Nc1ccccc1Br", "note": "(configuration not stated)", "activity change, negative = inhibition": "inactive: -35.5%"}
{"smiles": "CN(C)C(=O)c1c([N+](=O)[O-])cc([N+](=O)[O-])cc1[N+](=O)[O-]", "activity change, negative = inhibition": "inactive: -24.2% [at 56.9 µM]"}
{"smiles": "N#[O+].[C-]#N.[C-]#N.[C-]#N.[C-]#N.[C-]#N.[Fe+2].[Na+].[Na+]", "Potency": "active: 18.9 µM"}
